The list shows a part of the results. Some tests of the compounds listed are not included; inactive here does not mean inactive elsewhere. The source made the active and inactive calls.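 Rule for the calls: active = activation factor of at least 2 at 5 µM in the primary screen; inactive = the rest.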
target: Cytochrome P450 2C19 (Homo sapiens) (UniProt P33261); test: enhancers of cytochrome P450 2C19 turnover – biochemical, luminescence, primary screen (AID 1025); settings: recombinant CYP2C19, luciferin-H EGE luminescence; at 5 µM; hits give high values; 0 = fully inhibited enzyme, 1 = untreated enzyme;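 note: 0 = wells with 2.5 mM tranylcypromine and 1 = vehicle-only wells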

The chains behind the UniProt entries cited, without tags or fusion partners.
UniProt P33261, whole entry: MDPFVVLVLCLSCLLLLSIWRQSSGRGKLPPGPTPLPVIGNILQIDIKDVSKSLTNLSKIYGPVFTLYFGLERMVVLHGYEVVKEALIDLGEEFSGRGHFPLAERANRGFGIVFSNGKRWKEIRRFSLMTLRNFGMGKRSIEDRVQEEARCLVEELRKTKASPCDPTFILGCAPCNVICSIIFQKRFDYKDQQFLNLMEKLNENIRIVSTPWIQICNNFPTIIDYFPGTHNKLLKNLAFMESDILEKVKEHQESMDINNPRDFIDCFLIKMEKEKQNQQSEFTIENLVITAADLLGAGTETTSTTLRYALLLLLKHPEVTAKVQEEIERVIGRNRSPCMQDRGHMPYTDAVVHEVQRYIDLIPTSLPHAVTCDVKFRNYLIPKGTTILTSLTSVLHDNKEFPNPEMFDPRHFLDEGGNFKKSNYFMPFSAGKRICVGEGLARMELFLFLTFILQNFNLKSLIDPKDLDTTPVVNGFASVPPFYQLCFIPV

Row | Structure (SMILES) | activation factor
1 | O=C(OC1CN2CCC1CC2)C(CO)(c1ccccc1)c1ccccc1 (stereo not drawn) | inactive: 1.1
2 | CN(C)c1cccc(C(=O)NCC2(N(C)C)CCCCC2)c1 | inactive: 1
3 | CC(C)N1C(=O)CC2(CCN(CCOC(=O)C(O)(c3ccccc3)c3ccccc3)CC2)C1=O | inactive: 1.1

From PubChem BioAssay AID1025 (Sanford-Burnham Center for Chemical Genomics, 2008)
